For the series the following is noted: in vivo. As for the experimental part: This study examined global metabolic profiles in six dolphins (“Group A dolphins”). The dolphins lived in netted enclosures within San Diego Bay. The dolphins started on a 100% capelin diet. Group A dolphins were fed one-third of their daily diet in the morning after their routine overnight fast and 2h postprandial, in-water, and trained blood samples were drawn (typically near 10:00 a.m.). An additional four dolphins (“Group C dolphins”) were fed the capelin diet.
Two hour post-prandial samples were collected from the dolphins at baseline (week 0) and at four time points following the switch to the modified diet: 6, 12, 18, and 24 weeks. Routine monthly samples collected from four reference dolphins that were housed in the same environment as the Group A dolphins were assessed for glucose, triglycerides, ferritin, and percent serum fatty acids.
Sample Preparation: Samples were prepared using the automated MicroLab STAR® system from Hamilton Company. Several recovery standards were added prior to the first step in the extraction process for QC purposes. Proteins were precipitated with methanol under vigorous shaking for 2 min (Glen Mills GenoGrinder 2000) followed by centrifugation. The resulting extract was divided into five fractions: two for analysis by two separate reverse phase (RP)/UPLC-MS/MS methods with positive ion mode electrospray ionization (ESI), one for analysis by RP/UPLC-MS/MS with negative ion mode ESI, one for analysis by HILIC/UPLC-MS/MS with negative ion mode ESI, and one sample was reserved. Samples were placed briefly on a TurboVap® (Zymark) to remove the organic solvent. The sample extracts were stored overnight under nitrogen before preparation for analysis.
Ultrahigh Performance Liquid Chromatography-Tandem Mass Spectroscopy (UPLC-MS/[…]): Each of four methods utilized a Waters ACQUITY ultra-performance liquid chromatography (UPLC) and a Thermo Scientific Q-Exactive high resolution/accurate mass spectrometer interfaced with a heated electrospray ionization (HESI-II) source and Orbitrap mass analyzer operated at 35,000 mass resolution. A sample extract was dried, then reconstituted in solvents compatible to each of the four methods. Each reconstitution solvent contained a series of standards at fixed concentrations to ensure injection and chromatographic consistency. A first aliquot was analyzed using acidic positive ion conditions, chromatographically optimized for more hydrophilic compounds. In this method, the extract was gradient eluted from a C18 column (Waters UPLC BEH C18-2. 1×100 mm, 1.7 μm) using water and methanol, containing 0.05% perfluoropentanoic acid (PFPA) and 0.1% formic acid (FA). A second aliquot was also analyzed using acidic positive ion conditions, however it was chromatographically optimized for more hydrophobic compounds. In this method, the extract was gradient eluted from the same afore mentioned C18 column using methanol, acetonitrile, water, 0.05% PFPA and 0.01% FA and was operated at an overall higher organic content. A third aliquot was analyzed using basic negative ion optimized conditions using a separate dedicated C 18 column. The basic extracts were gradient eluted from the column using methanol and water, however with 6.5 mM Ammonium Bicarbonate at pH 8. […] The MS analysis alternated between MS and data-dependent MSn scans using dynamic exclusion. The scan range varied slighted between methods but covered 70-1000 m/z.
Data Extraction and Compound Identification: Raw data was extracted, peak-identified and QC processed using Metabolon's hardware and software. The systems were based on a web-service platform utilizing Microsoft's .NET technologies, which ran on high-performance application servers and fiber-channel storage arrays in clusters to provide active failover and load-balancing. Compounds were identified by comparison to library entries of purified standards or recurrent unknown entities.

As to `CCCCC/C=C\C/C=C\CCCCCCCCCC(=O)O` [dihomo-linoleate (20:2n6), dihomo-linoleate], the “serum concentration 18 wk / 0 wk” value is reported as 1.03.
On to `CC/C=C\C/C=C\C/C=C\C/C=C\CCCCC(=O)O` [stearidonate (18:4n3), stearidonate], for which the “serum concentration 6 wk / 0 wk” value stood at 1.03.
As for “dihomo-linolenate [dihomo-linolenate (20:3n3 or n6)]”, the “serum concentration 6 wk / 0 wk” value is reported as 1.14, the “serum concentration 12 wk / 0 wk” value is listed as 1.37, the “serum concentration 18 wk / 0 wk” value was determined as 1.36 and the “serum concentration 24 wk / 0 wk” value amounted to 1.03.

(Values after US11116740B2, “Methods for use in support of planned supplement and food ingredient products for diagnosis and treatment of metabolic syndrome” (priority 2015, dated 2021).)
